Reference: patent US8163701B2, “Prodrugs of active agents” (Signature Therapeutics, Inc., priority 2005, dated 2012)

Molecular target: T1, Type 1 bovine trypsin (Bos taurus, UniProt P00760)
T1 sequence (P00760 24-246): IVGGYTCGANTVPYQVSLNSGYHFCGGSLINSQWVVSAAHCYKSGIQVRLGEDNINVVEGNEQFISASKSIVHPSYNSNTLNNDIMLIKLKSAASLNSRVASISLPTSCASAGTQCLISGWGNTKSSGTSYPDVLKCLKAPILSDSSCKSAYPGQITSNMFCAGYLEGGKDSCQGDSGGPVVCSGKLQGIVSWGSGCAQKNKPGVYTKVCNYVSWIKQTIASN
Experiment: Trypsin hydrolysis of opioid prodrug Z
Details: 30 minute incubation at room temperature with increasing amounts of trypsin, reverse phase HPLC; 12 mM CaCl2, 5 mM Tris-HCl pH 8.0

COc1ccc2c3c1OC1C(=O)CC[C@H]4[C@@H](C2)[N@@+](C)(Cc2ccc(NC(=O)[C@@H](N)CCCCN)cc2)CC[C@]314 (stereo partly shown) [opioid prodrug Z]
hydrolysis of prodrug by trypsin (disappearance of prodrug / appearance of hydrocodone): hydrolyzed to hydrocodone
